Experimental data taken from patent US7091185B2, “Periodic antimicrobial peptides” (Dow Global Technologies Inc., priority 2003, dated 2006).
Converted amounts (≈) assume the structure as drawn.

Experiments:
HeLa cell line = test: HeLa MTS cellular reduction toxicity assay; assay type: cell-based; conditions: for TX50: 24 h, MTS
Procedure: The RBC protocol was from Blondelle (2000) and is described generally as follows: The toxicity toward the HeLa cell line was determined using a MTS (3-(4-5-dimethylthiazol-2-yl)-5-(3carboxymethoxyphenyl)-2-(4-sulfophenyl)-2H-tetrazolium, sodium salt) cellular reduction assay. MTS (2 mg/mL) was prepared in Dulbecco PBS (pH 7.35), filtered, aliquoted and stored at minus 20° C. In 96 well flat bottomed plates, cell suspensions (250 μL of 6×10^4 cell/mL in each well) were incubated for 48 h at 37° C. (5% CO2 incubator). The peptides (50 μL) were then added to the cell monolayer (following aspiration of the media from each well and addition of 50 μL of Dulbecco's Modified Eagles Medium) at varying concentrations derived from serial 2-fold dilutions, and the plates incubated for 24 h at 37° C. (5% CO2 incubator). Proliferation was then determined by adding a solution of phenazine methosulfate (PMS: 0.92 mg/mL in DPBS) to MTS at a 1:20 ration just prior to the assay. Twenty microliters MTS-PMS solution were added to each well and the plates incubated for 1 h at 37° C. (5% CO2 incubator). The relative percent toxicity was determined by comparing the absorbance at 490 nm of each peptide to the absorbance of cells without peptide. The TX50 (concentration required for 50% toxicity) was calculated using a sigmoidal curve fitting software (Graphpad Prism).

E. coli ATCC 2592 = test system: E. coli ATCC 2592
Procedure: (§1) The bacteria tested were P. aeruginosa American Type Culture Collection Number (ATCC) 10145, E. coli ATCC 2592, and S. aureus (methicillin reseistant) ATTC 33591.
(§2) All experiments were compared to bacterial growth under optimal growth conditions (37° C., pH 7.0, absence of additional salt, growth media—referred to as standard growth conditions). In each plate, no growth control (media alone), positive growth control (bacteria with no test sample), positive antimicrobial controls (agents with known antimicrobial activity) and test compounds were tested.
(§3) The plates were incubated overnight, and the relative percent growth determined by optical density at 620 nm (OD620) using a […] […] PLUS™. […] All samples were tested in duplicate and each assay was repeated at least twice. […] IC50 and MIC are reported in μg/ml.

[1] = test system: S. aureus (methicillin resistant) ATCC 33591
Procedure: as §1, §2, §3

C. albicans 10231 = assay type: cell-based
Procedure: (§4) The MIC and IC50 values were determined by a broth microdilution method according to guidelines of the National Committee for Clinical Laboratory Standard as follows: In 96-well tissue culture plates, a fixed volume of bacterial suspension in 2× broth (as defined below) was added to the mixtures or individual compounds dispensed at concentrations varying from 1,000 to 1 μg/ml derived from serial two-fold dilutions in sterile water. The bacteria tested were P. aeruginosa American Type Culture Collection Number (ATCC) 10145, E. coli ATCC 2592, and S. aureus (methicillin reseistant) ATTC 33591.
(§5) The plates were incubated overnight, and the relative percent growth determined by optical density at 620 nm (OD620) using a TITERTEK MULTISKAN PLUS™. […] IC50 values were calculated using a sigmoidal curve fitting software program (GRAPHPAD,™ ISI Software,™ San Diego, Calif.). All samples were tested in duplicate and each assay was repeated at least twice. In the following table, KFAK is the repeat unit and multimers of KFAK were tested. IC50 and MIC are reported in μg/ml.
(§6) Because the antibacterial activity of the periodic peptides was so promising, further experiments were performed to determine if the periodic peptides also had antifungal activity. The experimental design was similar to that above, with accommodation made for fungal growth requirements, including the use of Sabouraud Dextrose Broth (SDB) and Sabouraud Dextrose Agar (SDA) slants.

Cr. Neoformans 32045 = assay type: cell-based
Procedure: as §4, §5, §6

Red blood cells (RBC) = test: Red blood cell toxicity; assay type: cell-based
Red blood cell toxicity = assay type: cell-based; conditions: red blood cells (RBC); RBCs; concentration required for 50% toxicity; read-out: TX50
P. aeruginosa ATCC 10145 = test system: P. aeruginosa ATCC 10145
Procedure: as §1, §2, §3

P. aeruginosa ATCC 15442 = test: HMARQ biocidal kill activity; assay type: cell-based; conditions: P. aeruginosa ATCC 15442 (gram−)
Procedure: (§7) Biocide efficacy protocols were improved by reducing sample size, organizing the test material into an array format, implementing most probable number (MPN) quantitation and using multi-channel liquid handling equipment. We call the new method “high-throughput microanalysis and rapid quantitation” or “HMARQ.” HMARQ is directly applicable to current industrial efficacy tests such as multi-cycle preservation challenge or time course disinfection tests.
(§8) HMARQ is performed in a high throughput plate, such as 96-well microtiter plates. Typical sample volumes have been reduced down to 200 to 300 μL, but can be reduced further if desired. In these samples, no more than 10% of the total volume will be composed of the biocide and organism solution, and all non-matrix additions are normalized for all samples.
(§9) The sample matrix is first inoculated with the desired concentration of microorganisms. Inoculated sample matrix is then added to the 96-well assay block containing the biocide(s) under study. Each sample block contains biocide treated samples and untreated control samples (lacking biocide). Once the samples are prepared, the entire block of samples is mixed by vortexing until each sample is homogenous. In general, the study starts once mixing is complete, and samples are removed as required for the analysis. When Kill Time testing (rate of biocide activity) is performed, the microorganisms are added after biocide addition to the samples, allowing for rapid mixing and analysis.
(§10) Bacterial concentration (CFU/mL) is determined using the most probable number method (MPN). The contaminated solution is serially diluted until the “no growth” endpoint is reached. The endpoint represents the MPN and is expressed in units of the bacterial concentration. A serial 1:10 dilution will yield a bacterial concentration resolution of 1 log and the log reduction is determined by comparing the concentration of organisms in a treated sample to the concentration of organisms in untreated samples. For example, if a sample requires four 1:10 dilutions before bacterial growth is lost then the MPN for bacterial concentration in the sample is less than or equal to 1×10^4 CFU/mL (1E4). […] This method of enumeration is generally applicable to all non-filamentous microorganisms.
(§11) Media included Tryptic Soy Broth (TSB) for bacteria and Sabouraud Dextrose Broth (SDB) for fungi. These are available commercially and prepared according to the manufacturers instructions. Indicator medium was TSB/R for bacteria and SDB/R for fungi. […]
(§12) Using the HMARQ test described above, periodic peptides were generated and tested for Kill Activity. […] Units are expressed as ppm (μg/mL) needed for 3.5 log kill at 15 min or 24 hour and the results are shown below.

Staph. aureus ATCC 6538 = test: HMARQ biocidal kill activity; assay type: cell-based; conditions: Staph. aureus ATCC 6538 (gram+)
Procedure: as §7, §8, §9, §10, §11, §12

| SMILES | % kill at 500 μg/ml (HeLa cell line) | TX50 (HeLa cell line) | IC50 (E. coli ATCC 2592) | MIC (E. coli ATCC 2592) | IC50 [1] | MIC [1] | IC50 (C. albicans 10231) | MIC (C. albicans 10231) | IC50 (Cr. Neoformans 32045) | MIC (Cr. Neoformans 32045) | % kill at 250 μg/ml (Red blood cells (RBC)) | HC50 at 24 h (Red blood cell toxicity) | IC50 (P. aeruginosa ATCC 10145) | MIC (P. aeruginosa ATCC 10145) | ppm needed for 3.5 log kill at 15 min (P. aeruginosa ATCC 15442; 15 min) | ppm needed for 3.5 log kill at 24 hr (P. aeruginosa ATCC 15442; 24 hr) | ppm needed for 3.5 log kill at 15 min (Staph. aureus ATCC 6538; 15 min) | ppm needed for 3.5 log kill at 24 hr (Staph. aureus ATCC 6538; 24 hr) |
| --- | --- | --- | --- | --- | --- | --- | --- | --- | --- | --- | --- | --- | --- | --- | --- | --- | --- | --- |
| C[C@H](NC(=O)[C@H](Cc1ccccc1)NC(=O)[C@H](CCCCN)NC(=O)[C@H](CCCCN)NC(=O)[C@H](C)NC(=O)[C@H](Cc1ccccc1)NC(=O)[C@H](CCCCN)NC(=O)[C@H](CCCCN)NC(=O)[C@H](C)NC(=O)[C@H](Cc1ccccc1)NC(=O)[C@@H](N)CCCCN)C(=O)N[C@@H](CCCCN)C(=O)O [KFAK (3)] | 77% | >500 µg/mL | >250 µg/mL | >250 µg/mL | >500 µg/mL | >500 µg/mL | 262 µg/mL (≈ 182 µM) | 280 to 500 µg/mL | 22 µg/mL (≈ 15.3 µM) | 125 to 250 µg/mL | 0.4% | > 500 µg/mL |  |  |  |  |  |  |
| CC(C)C[C@H](NC(=O)[C@H](CCCCN)NC(=O)[C@H](CC(C)C)NC(=O)[C@H](CCCCN)NC(=O)[C@H](CC(C)C)NC(=O)[C@H](CCCCN)NC(=O)[C@H](CC(C)C)NC(=O)[C@H](CCCCN)NC(=O)[C@H](CC(C)C)NC(=O)[C@H](CCCCN)NC(=O)[C@H](CC(C)C)NC(=O)[C@H](CCCCN)NC(=O)[C@@H](N)CC(C)C)C(=O)N[C@@H](CCCCN)C(=O)O [LK (7)] | 29.6% | 309 µg/mL | 37 µg/mL (≈ 21.7 µM) | 45 to 62 µg/mL | 78 µg/mL (≈ 45.7 µM) | 250 to 500 µg/mL | 166 µg/mL (≈ 97.2 µM) | 250 to 500 µg/mL | 0.8 µg/mL (≈ 0.469 µM) | 2 to 4 µg/mL | 16% | > 500 µg/mL | 111 µg/mL (≈ 65 µM) | 125 µg/mL (≈ 73.2 µM) | 8 ppm | 8 ppm | 16 ppm | 4 ppm |
| C[C@H](NC(=O)[C@H](Cc1ccccc1)NC(=O)[C@@H](N)CCCCN)C(=O)N[C@@H](CCCCN)C(=O)O [KFAK (1)] | 112% | >500 µg/mL | >250 µg/mL | >250 µg/mL | >500 µg/mL | >500 µg/mL | 329 µg/mL (≈ 668 µM) | >500 µg/mL | 400 µg/mL (≈ 812 µM) | >500 µg/mL | 2.8% | > 500 µg/mL |  |  |  |  |  |  |
| C[C@H](NC(=O)[C@H](Cc1ccccc1)NC(=O)[C@H](CCCCN)NC(=O)[C@H](CCCCN)NC(=O)[C@H](C)NC(=O)[C@H](Cc1ccccc1)NC(=O)[C@@H](N)CCCCN)C(=O)N[C@@H](CCCCN)C(=O)O [KFAK (2)] | 83% | >500 µg/mL | >250 µg/mL | >250 µg/mL | >250 µg/mL | >250 µg/mL | >250 µg/mL | >250 µg/mL | >250 µg/mL | >250 µg/mL | 2.2% | > 250 µg/mL | >250 µg/mL |  |  |  |  |  |
